The test deals with Centromere-associated protein E (Mus musculus) (UniProt Q6RT24). The test is described as follows: Binding affinity to wild-type mouse CENP-E assessed as ATPase activity.

The chains behind the UniProt entries cited, without tags or fusion partners. Where a name states a change or a piece, a line headed by the entry shows the natural chain unless it says otherwise.
UniProt Q6RT24: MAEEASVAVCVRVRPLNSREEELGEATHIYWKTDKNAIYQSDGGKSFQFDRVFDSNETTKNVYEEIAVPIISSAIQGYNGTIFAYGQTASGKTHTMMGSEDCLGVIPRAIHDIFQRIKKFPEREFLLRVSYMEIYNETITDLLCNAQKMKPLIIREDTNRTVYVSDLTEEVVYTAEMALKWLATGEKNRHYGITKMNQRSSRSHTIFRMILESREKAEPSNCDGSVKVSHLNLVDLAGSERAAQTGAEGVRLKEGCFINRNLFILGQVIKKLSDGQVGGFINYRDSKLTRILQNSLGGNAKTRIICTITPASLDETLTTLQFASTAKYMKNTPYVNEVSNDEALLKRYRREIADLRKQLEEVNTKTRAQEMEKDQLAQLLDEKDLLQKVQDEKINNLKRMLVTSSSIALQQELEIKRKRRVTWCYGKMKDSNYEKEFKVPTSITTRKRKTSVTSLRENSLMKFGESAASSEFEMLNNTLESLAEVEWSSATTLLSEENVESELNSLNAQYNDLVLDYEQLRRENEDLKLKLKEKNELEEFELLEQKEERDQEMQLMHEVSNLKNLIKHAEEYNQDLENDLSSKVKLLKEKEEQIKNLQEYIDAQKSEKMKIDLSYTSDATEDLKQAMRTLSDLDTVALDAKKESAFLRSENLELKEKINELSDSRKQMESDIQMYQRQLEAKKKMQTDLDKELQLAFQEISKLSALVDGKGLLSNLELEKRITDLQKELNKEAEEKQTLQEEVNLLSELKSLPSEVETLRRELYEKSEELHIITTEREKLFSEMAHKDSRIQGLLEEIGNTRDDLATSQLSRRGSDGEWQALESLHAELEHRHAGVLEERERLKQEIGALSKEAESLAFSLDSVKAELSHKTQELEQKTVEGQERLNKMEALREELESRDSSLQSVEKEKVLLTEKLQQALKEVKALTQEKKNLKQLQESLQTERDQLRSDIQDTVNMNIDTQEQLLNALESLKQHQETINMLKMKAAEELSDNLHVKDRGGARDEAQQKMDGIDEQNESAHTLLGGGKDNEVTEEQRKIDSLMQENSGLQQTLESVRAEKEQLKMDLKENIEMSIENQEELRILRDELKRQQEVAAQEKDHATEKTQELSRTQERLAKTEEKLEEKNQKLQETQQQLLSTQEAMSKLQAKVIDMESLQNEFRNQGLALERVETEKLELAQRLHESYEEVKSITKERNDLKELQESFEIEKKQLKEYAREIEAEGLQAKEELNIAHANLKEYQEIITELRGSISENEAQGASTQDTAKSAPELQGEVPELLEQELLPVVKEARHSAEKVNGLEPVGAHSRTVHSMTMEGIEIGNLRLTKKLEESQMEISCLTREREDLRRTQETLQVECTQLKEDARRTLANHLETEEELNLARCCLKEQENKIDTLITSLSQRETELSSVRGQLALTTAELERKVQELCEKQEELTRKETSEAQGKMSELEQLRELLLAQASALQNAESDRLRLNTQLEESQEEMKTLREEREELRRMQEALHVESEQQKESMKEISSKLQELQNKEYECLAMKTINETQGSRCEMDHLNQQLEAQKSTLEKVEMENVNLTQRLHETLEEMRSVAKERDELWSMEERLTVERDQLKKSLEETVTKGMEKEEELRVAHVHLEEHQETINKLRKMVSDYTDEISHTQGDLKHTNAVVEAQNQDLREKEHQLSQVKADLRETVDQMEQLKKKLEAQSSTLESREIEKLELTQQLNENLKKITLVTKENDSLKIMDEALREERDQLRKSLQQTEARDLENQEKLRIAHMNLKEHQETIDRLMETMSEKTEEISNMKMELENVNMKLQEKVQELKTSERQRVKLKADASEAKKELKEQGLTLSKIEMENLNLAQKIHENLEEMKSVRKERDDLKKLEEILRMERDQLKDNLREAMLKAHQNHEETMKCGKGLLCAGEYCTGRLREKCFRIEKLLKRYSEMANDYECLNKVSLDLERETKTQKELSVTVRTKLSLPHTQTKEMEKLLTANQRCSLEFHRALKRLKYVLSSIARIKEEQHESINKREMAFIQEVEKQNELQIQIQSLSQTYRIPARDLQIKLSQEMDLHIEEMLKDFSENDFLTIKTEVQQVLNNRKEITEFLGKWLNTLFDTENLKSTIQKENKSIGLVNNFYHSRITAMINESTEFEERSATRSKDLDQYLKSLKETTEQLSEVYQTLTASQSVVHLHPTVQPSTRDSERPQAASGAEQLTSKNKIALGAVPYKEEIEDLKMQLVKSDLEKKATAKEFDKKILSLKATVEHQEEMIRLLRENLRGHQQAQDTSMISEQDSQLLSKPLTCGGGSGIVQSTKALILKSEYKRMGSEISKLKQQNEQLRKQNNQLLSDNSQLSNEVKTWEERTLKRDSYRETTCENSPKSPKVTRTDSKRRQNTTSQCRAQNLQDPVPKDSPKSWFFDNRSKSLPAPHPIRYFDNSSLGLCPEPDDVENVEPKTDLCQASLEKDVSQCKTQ

Results on one molecule are retold here after ChEMBL document CHEMBL5705890, “Antitumor activity of an allosteric inhibitor of centromere-associated protein-E” (Proc Natl Acad Sci U S A, 2010).

On to `CC(C)Oc1ccc(C(=O)N[C@H](CNC(=O)CN(C)C)Cc2ccc(-c3cn4cccc([C@H](C)O)c4n3)cc2)cc1Cl`, for which the Activity worked out at 0.31 s⁻¹.
